The term IC50 denotes the concentration at which inhibition is half-maximal.

The chains behind the UniProt entries cited, without tags or fusion partners. Residues count along the entry.
UniProt P00746, 26-253 limits assumed: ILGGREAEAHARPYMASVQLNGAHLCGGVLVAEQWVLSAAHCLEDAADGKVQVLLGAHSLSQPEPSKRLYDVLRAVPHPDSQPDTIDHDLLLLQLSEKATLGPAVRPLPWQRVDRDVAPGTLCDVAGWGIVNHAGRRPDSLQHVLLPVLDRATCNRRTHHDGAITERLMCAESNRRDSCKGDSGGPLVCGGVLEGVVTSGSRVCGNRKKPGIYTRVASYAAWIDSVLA

Where only a bound is given, the exact number is not on record here.

The assay concerns the target Human Factor D (Homo sapiens, UniProt P00746). The assay can be described thus: Human Factor D Assay. The settings on record: read-out: IC50 (Stars); Human Factor D 80 nM, substrate Z-L-Lys-SBzl; Table 2.
Consider `CCC(=O)c1ncc(-c2cc(C)c3c(c2)c(C(C)=O)nn3CC(=O)N2[C@H](C(=O)Nc3nc(Br)ccc3C)C[C@@]3(C)C[C@@H]23)cn1`, for which the IC50 was under 1000 nM.
With `CC(=O)c1nn(CC(=O)N2[C@H](C(=O)NCC(C)(C)OC(C)C)C[C@@]3(C)C[C@@H]23)c2c(C)cc(-c3cnc(C)nc3)cc12`, the IC50 was over 10000 nM.
On to `CCC(C)(C)CNC(=O)[C@@H]1C[C@@]2(C)C[C@H]2N1C(=O)Cn1nc(C(C)=O)c2cc(-c3cnc(C)nc3)cc(C)c21`, for which the IC50 was under 1000 nM.

These data come from US20230022157A1 (Achillion Pharmaceuticals, Inc., priority 2018, published 2023).
